## AlphaSeq binding of Ab-91 heavy chain variants to a spike HR2 peptide

Binding partner: SARS-CoV-2 spike HR2 peptide, sequence PDVDLGDISGINAS.

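Phage display of a naive human antibody library on the peptide gave the parent. In library AAYL51, one, two or three CDR residues were substituted; doubles and triples were drawn at random. Affinity was read by AlphaSeq, a pooled yeast mating assay with surface-displayed partners. Binding brings cells together so that they mate, and sequencing counts the barcode pairs among the diploids. Scores were corrected for input abundance and mapped to Kd with protein pairs of known affinity run in the same pool. The assay was run in three technical replicates.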

Each scFv is VL, a (GGGGS)3 linker, VH, as in the parent Ab-91, and differs from it in the CDRs of the heavy chain only.
VL: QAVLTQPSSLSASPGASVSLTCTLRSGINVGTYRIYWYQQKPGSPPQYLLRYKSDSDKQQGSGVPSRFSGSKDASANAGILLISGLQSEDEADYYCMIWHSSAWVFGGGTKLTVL
VH: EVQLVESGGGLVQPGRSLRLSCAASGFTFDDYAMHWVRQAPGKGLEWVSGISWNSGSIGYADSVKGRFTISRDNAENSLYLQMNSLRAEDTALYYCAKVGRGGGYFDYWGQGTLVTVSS

Positions count from residue 1 of the parent VH; F29C puts C in place of F. Numbers give log10(Kd / nM), so 0 is 1 nM and 3 is 1 µM. Smaller is tighter. The mean shown is taken over the replicates in which the pair was detected. A pair that was not seen in any replicate is written "no signal"; this usually means weak binding, but a binder can also be missed. Parent in this assay: reference entry 1.86, copy in this library 0.88. Background: pairings of library AAYL51 with three empty control strains gave a value in 21% of cases (median 4.54, 5th percentile 3.26). Values in that range, when seen in few replicates, are hard to tell from nonspecific mating.

changes,"mean, log10 nM",detected
F29C/G50E/N54C,no signal,0 of 3
G26I/R101H/Y105W,no signal,0 of 3
F27R/D30F/I51N,4.86,2 of 3
T28A/G100V/G104I,no signal,0 of 3
S55R/G59C/V64M,3.68,1 of 3
T28H/G56R/D62I,no signal,0 of 3
S55N/V99C/D107E,5.28,1 of 3
A33C/N54A/S55C,no signal,0 of 3
S55K/I58E/D62G,4.55,1 of 3
F29S/S52W/D62F,4.36,2 of 3
F27E/N54V,no signal,0 of 3
S57H/S63R/Y108T,1.41,3 of 3
F29Q/G59V/F106H,6.01,2 of 3
M34H/G102E/Y108E,no signal,0 of 3
S57H/G100V/G102N,2.66,3 of 3
D31K/A33C/V64S,5.31,1 of 3
G56P/Y60C/S63F,5.08,1 of 3
F29E/D31H/A61D,4.62,1 of 3
A33H/G50C/G56R,no signal,0 of 3
A33R/A61K,3.69,1 of 3
A33D/Y60W/G102T,4.62,2 of 3
H35D/N54W/G100N,5.22,3 of 3

Further variants, results first:

"mean, log10 nM",detected,changes
4.59,2 of 3,D31C/G50P
4.17,2 of 3,G50C/A61T/F106K
no signal,0 of 3,G102S/Y108F
1.35,3 of 3,I58C/K65I
no signal,0 of 3,G26V/H35P/N54W
4.68,2 of 3,S55L/A61V/F106C
no signal,0 of 3,T28A/A33H/V64A
4.98,1 of 3,M34E/H35A/S57N
no signal,0 of 3,T28V/S55Y/F106E
4.37,2 of 3,S52F/W53H/V64E
2.38,3 of 3,G100K/G104Q
4.31,1 of 3,F27V/I51Y/R101A
1.09,3 of 3,K65G/F106R/D107L
4.97,1 of 3,F29G/S52R/G103V
3.45,1 of 3,F27W/D30K/S52L
no signal,0 of 3,G59Y/G103Q
no signal,0 of 3,D30S/M34N/F106A
no signal,0 of 3,Y32L/W53S/G59M
no signal,0 of 3,D31S/H35Y/I58L
no signal,0 of 3,K65W/R101A/D107I
no signal,0 of 3,F29T/Y32I/G56Y
no signal,0 of 3,H35G/Y60A/K65W
4.44,1 of 3,F27A/G102L/D107N

Data: MIT Lincoln Laboratory AlphaSeq set, Engelhart et al. 2022, doi:10.1038/s41597-022-01779-4, as distributed in FLAb.